Data on one substance can be found in patent US5840720A (priority 1995, dated 1998).

This assay relates to isolated guinea-pig right and left atrium. Description: hCGRP-induced beating and tension of isolated guinea-pig atria. As to conditions: cumulative hCGRP. How it is done:
FIG. 7 Cumulative concentration-response curves for the chronotropic effects of hCGRP in the absence and presence of CAPBZ (50 μM) and benzocaine (10 μM) on spontaneous beatings of guinea-pig right atria. Each value is the mean±S.E.M. of six experiments.
E. Ineffective effect on CGRP releasing in the isolated atrium
These effects were not inhibited by compound 1 (CAPBZ).

In the case of “hCGRP: hCGRP (ACDTATCVTHRLAGLLSRSGGVVKNNFVPTNVGSKAF; Calcitonin gene-related peptide 1; UniProt P06881 83-119, looked up) [reference compound]”, the “effect of hCGRP on beating and tension” value is “increased the beating in the right atrium and the tension in the electrically driven left atrium”.
